# Ab-91 heavy chain CDR variants: yeast mating affinities

Values reported by Engelhart et al. 2022, doi:10.1038/s41597-022-01779-4 (FLAb copy).

The target is the same throughout: PDVDLGDISGINAS, from the HR2 region of SARS-CoV-2 spike.

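The starting antibody came from a phage panning campaign against this peptide. Variants in AAYL51 differ from the parent at up to three CDR positions; double and triple changes were sampled at random. The assay is AlphaSeq: two haploid yeast populations carry antibody and antigen on their surface. The frequency of each diploid, read from paired DNA barcodes, reflects how well the two displayed proteins bind. Read counts were normalised to the haploid input and turned into Kd by a linear fit to BCL2-family pairs of known affinity, for each replicate. There are three technical replicates.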

Parent: Ab-91, a human scFv built as VL, a (GGGGS)3 linker, VH. Only the CDRs of the heavy chain vary.
VL: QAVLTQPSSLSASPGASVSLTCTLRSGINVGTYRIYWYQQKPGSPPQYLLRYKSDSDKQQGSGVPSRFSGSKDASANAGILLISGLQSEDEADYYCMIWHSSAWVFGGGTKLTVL
VH: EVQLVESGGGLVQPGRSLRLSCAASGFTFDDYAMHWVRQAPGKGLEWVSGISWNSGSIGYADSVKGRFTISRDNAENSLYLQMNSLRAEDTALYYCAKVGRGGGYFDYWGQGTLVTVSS

The parent's heavy chain CDRs are GFTFDDYAMH, GISWNSGSIGYADSVK, VGRGGGYFDY; each variant's own CDRs replace them letter for letter. This list gathers variants with a substitution at D30 (VH, numbered from residue 1). Values are apparent Kd, the geometric mean of the replicates that gave a signal; lower means stronger binding. "nd" means that the variant was in the library but no mating with the target was seen in any replicate; the authors take this as a sign of poor binding, and no number exists. Background: pairings of library AAYL51 with three empty control strains gave a value in 21% of cases (median 34 µM, 5th percentile 1.8 µM). Values in that range, when seen in few replicates, are hard to tell from nonspecific mating. Also given: how often the same scFv was detected with the empty control strains.

Variant GFTFCDYAMH / GISMNSGSIGYADSVK / VGRGGGQFDY showed 5.3 nM (3 of 3 replicates; controls 5 of 9). For GFTFRDYAMH / GISWNSVSIGYADSVK / VGRGGGYFDY, the assay gave 140 µM (2 of 3 replicates; controls 4 of 9). Variant GFTFYDYAMH / GISWNSGSINYADSVK / VGRGGGYFDY gave 5.1 µM (1 of 3 replicates; controls 2 of 9). Variant GFTFPDYSMH / GISWHSGSIGYADSVK / VGRGGGYFDY gave 17 nM (3 of 3 replicates; controls 4 of 9). With GFTFFNYAMH / GISWNSGSIGYADSVK / VGRGAGYFDY the result was nd (0 of 3 replicates; controls 2 of 9). With GLTFKDYAMH / GISWNSGSIGNADSVK / VGRGGGYFDY the result was 79 µM (2 of 3 replicates; controls 2 of 9). With GFTFGDYAMH / GISWNSGSIGYADKVK / VGRGGGYTDY the result was 920 nM (3 of 3 replicates; controls 4 of 9).

With GFTFKDYAMH / GISWNSGSIGYADSVK / MGRGGGYFDY the result was 230 nM (3 of 3 replicates; controls 3 of 9). With GFTCPDYAMI / GISWNSGSIGYADSVK / VGRGGGYFDY the result was 190 µM (2 of 3 replicates; controls 7 of 9). Variant GFTFIDYAMH / GISGNSGSIGYADSVK / QGRGGGYFDY gave nd (0 of 3 replicates; controls 0 of 9). For GFTFTDYAMH / GISWNSGSIGYADSVK / VGRKGGWFDY, the assay gave 28 µM (1 of 3 replicates; controls 3 of 9). With GATFKDYAQH / GISWNSGSIGYADSVK / VGRGGGYFDY the result was nd (0 of 3 replicates; controls 0 of 9). For GFTFQDYAMH / GISWHSGSIGYADSVK / VGIGGGYFDY, the assay gave nd (0 of 3 replicates; controls 2 of 9). Variant GFQFRDYAMH / GISWNSGSIGYADSVD / VGRGGGYFDY showed 3.6 nM (3 of 3 replicates; controls 0 of 9).

With GFTFWDYAMH / GISWNSGSIGQAESVK / VGRGGGYFDY the result was nd (0 of 3 replicates; controls 3 of 9). With GFTFWDKAMH / GISWNSGSIGYADSVK / VGRGGGYFPY the result was nd (0 of 3 replicates; controls 0 of 9). Variant GFTFFDYAMH / GISWNSGSIGYADSVK / VGRGGGYFDY showed 99 nM (3 of 3 replicates; controls 6 of 9). For GFTFMDYAMH / GISWNSTYIGYADSVK / VGRGGGYFDY, the assay gave 85 nM (3 of 3 replicates; controls 6 of 9). Variant GFTFIEYAMH / DISWNSGSIGYADSVK / VGRGGGYFDY showed 53 µM (2 of 3 replicates; controls 3 of 9). Variant GFTFFDYAMH / GISWNSSSIGYADSVK / VGRGDGYFDY gave 1.6 µM (1 of 3 replicates; controls 1 of 9). For GFTFYDYAMH / GISWNDGSIGYADSPK / VGRGGGYFDY, the assay gave nd (0 of 3 replicates; controls 1 of 9).

Variant GFTFQDYAMH / GISWNSGSIGYADSVK / VGRKGGYFDY gave nd (0 of 3 replicates; controls 2 of 9). Variant GFTFKDYAMH / GISANSSSIGYADSVK / VGRGGGYFDY showed 170 nM (3 of 3 replicates; controls 8 of 9). With GFTFYDYAMH / GISWNSGSIGYADSVI / VGRGGGYFFY the result was nd (0 of 3 replicates; controls 0 of 9). For GFTFRDYAMH / GISWNSGSIGYADSVK / DGRGGGYFDC, the assay gave 43 µM (1 of 3 replicates; controls 2 of 9). Variant GFTFKDYAMH / GIVWNSGSIGYADSVK / VGRGGGYFDY showed 92 µM (1 of 3 replicates; controls 2 of 9). Variant GFTFEDYAMH / GISWNSGSKGYADSVK / VGRGSGYFDY showed 8.3 µM (3 of 3 replicates; controls 1 of 9).

Excerpt, the final 4 entries:

CDR-H1	CDR-H2	CDR-H3	apparent Kd	detected	control signals
GFTFYDYAMH	GISWNSGSIGYADSVI	VGRGGGYFFY	nd	0 of 3	0 of 9
GFTFRDYAMH	GISWNSGSIGYADSVK	DGRGGGYFDC	43 µM	1 of 3	2 of 9
GFTFKDYAMH	GIVWNSGSIGYADSVK	VGRGGGYFDY	92 µM	1 of 3	2 of 9
GFTFEDYAMH	GISWNSGSKGYADSVK	VGRGSGYFDY	8.3 µM	3 of 3	1 of 9

In this assay the parent's reference entry averaged 72 nM; its copy inside this library read 7.5 nM.